Laboratory results reported in PubChem BioAssay AID493239 (Broad Institute, 2011).
Only a part is listed here, and it is no random draw. Calls of active or inactive are those of the source.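 The calls were made as follows: active = fitted curve crosses 40% activation at or below the top valid dose tested for that sample; inconclusive = flat fit between 30 and 70% activation, or poor fit; inactive = the rest, including activity in the opposite direction.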

Assay: GFP-HIF1alpha nuclear accumulation inducers, dose response, orthogonal assay for HIF pathway activator project, imaging, U2OS, high content, dry powder, set 3 (AID 493239)
Conditions: U2OS GFP-HIF1alpha nuclear intensity imaging; at 38 µM (top of the series)
How it was run: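 Assay system: U2OS cells carrying GFP-HIF1alpha / Benchmarks: Desferrioxamine positive control / Replicates: duplicates / Incubation: 24 h compound treatment at 37 °C / Medium: phenol red-free DMEM with 10% fetal bovine serum / Detection: fluorescence imaging at 10X of formaldehyde-fixed, DAPI-counterstained cells / Compound: 8 concentrations, 3-fold steps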

Q: With O=c1[nH]c2ccccc2n1C1CCN(Cc2ccc(O)c3ncccc23)CC1 as the compound, how does the activation read?
A: inactive: 24.6%
